This is an account of results in ChEMBL document CHEMBL1147892, “Quercinol, an anti-inflammatory chromene from the wood-rotting fungus Daedalea quercina (Oak Mazegill)” (Bioorg Med Chem Lett, 2007).

Sequences of proteins named here, by UniProt entry; tags and fusion partners are left off. A change or cut given only in a name is not applied to a line headed by its entry.
UniProt Q9BPW9: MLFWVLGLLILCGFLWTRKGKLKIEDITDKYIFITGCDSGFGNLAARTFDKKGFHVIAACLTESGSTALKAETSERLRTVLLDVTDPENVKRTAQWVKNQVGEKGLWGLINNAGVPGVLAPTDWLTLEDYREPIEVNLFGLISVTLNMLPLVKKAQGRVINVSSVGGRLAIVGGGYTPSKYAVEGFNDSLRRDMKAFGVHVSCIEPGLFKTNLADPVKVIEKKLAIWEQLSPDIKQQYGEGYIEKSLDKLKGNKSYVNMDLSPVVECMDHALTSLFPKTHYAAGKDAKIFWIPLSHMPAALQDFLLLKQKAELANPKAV

This test has as its target Dehydrogenase/reductase SDR family member 9 (Homo sapiens, UniProt Q9BPW9). In words: Inhibition of 3alphaHSD.

As usually defined, the IC50 is the midpoint of a concentration-inhibition curve. A lower IC50 goes with higher potency. Molecule `COc1ccc2c(c1)c(CC(=O)O)c(C)n2C(=O)c1ccc(Cl)cc1` [INDOMETHACIN] had an IC50 of 14 µM.
